Laboratory results reported in PMC2893280.

Biological target: bovine mitochondrial elongation factor Ts (EF-Tsmt), wild type (bovine) (UniProt P43896)
Assay: native gel or EMSA

For “bovine mitochondrial elongation factor Tu (EF-Tumt), wild type (from UniProt P49410 44-452) (natural protein)”, which percent of EF-Tsmt bound at equal molar amounts of the two factors is on record?
The percent of EF-Tsmt bound at equal molar amounts of the two factors was 60%.
